Test system: Male mice (NMRI, Charles River)
Experiment: animal or person
Conditions: Mus musculus, po, 1 h, read-out: % reversal of PCP induced hyperactivity

Cc1ncc(C)n2nc(CCc3nc(-c4ccccc4)cn3C)nc12 [5,8-Dimethyl-2-[2-(1-methyl-4-phenyl-1H-imidazol-2-yl)-ethyl]-[1,2,4]triazolo[1,5-a]pyrazine]
inhibition in vivo at 5 mg/kg: 99%

From patent US9018217B2, “Phenylimidazole derivatives as PDE10A enzyme inhibitors” (priority 2008, dated 2015)
